Reference: patent US11186582B2, “Substituted [1,2,4]triazolo[1,5-a]pyrimidin-7-yl compounds as PDE2 inhibitors” (DART NEUROSCIENCE (CAYMAN) LTD., priority 2014, dated 2021)

By UniProt entry, the sequences of proteins in these tests, tags left out. Residues count along the entry.
UniProt O00408, 2-941: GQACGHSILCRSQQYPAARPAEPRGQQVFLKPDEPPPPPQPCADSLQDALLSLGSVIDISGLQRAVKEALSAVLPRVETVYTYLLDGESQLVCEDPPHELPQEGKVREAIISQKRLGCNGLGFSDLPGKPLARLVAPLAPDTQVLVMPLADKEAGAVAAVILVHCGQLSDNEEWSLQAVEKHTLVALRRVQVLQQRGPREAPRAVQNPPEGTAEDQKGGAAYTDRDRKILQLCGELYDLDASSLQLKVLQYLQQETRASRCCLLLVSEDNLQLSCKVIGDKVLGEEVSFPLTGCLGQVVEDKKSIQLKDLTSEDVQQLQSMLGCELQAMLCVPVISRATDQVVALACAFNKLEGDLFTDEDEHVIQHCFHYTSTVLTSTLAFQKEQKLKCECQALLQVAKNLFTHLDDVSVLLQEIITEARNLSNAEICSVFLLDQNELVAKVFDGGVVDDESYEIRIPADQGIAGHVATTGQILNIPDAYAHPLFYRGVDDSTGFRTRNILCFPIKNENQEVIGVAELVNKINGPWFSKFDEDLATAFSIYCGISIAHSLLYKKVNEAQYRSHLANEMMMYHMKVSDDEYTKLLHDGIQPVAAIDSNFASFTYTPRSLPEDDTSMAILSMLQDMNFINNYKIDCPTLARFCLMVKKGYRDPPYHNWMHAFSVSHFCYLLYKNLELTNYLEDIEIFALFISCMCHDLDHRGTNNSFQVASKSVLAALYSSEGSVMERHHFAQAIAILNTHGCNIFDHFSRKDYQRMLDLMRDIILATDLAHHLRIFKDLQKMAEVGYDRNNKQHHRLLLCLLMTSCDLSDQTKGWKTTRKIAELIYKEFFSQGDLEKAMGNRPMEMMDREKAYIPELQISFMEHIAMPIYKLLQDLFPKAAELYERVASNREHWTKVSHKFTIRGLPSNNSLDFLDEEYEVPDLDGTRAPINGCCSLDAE

These compounds were tested against FLAG-tagged PDE2A1 (amino acids 2-941) (Homo sapiens (Human), UniProt O00408) (assay: IMAP TR-FRET PDE2A phosphodiesterase enzymatic assay). Details: not given.
`Cc1cc(C2CCCN(Cc3ccc(Cl)c(Br)c3)C2)n2ncnc2n1` (stereo not drawn) [Example 168, 1-[(3-Bromo-4-chlorophenyl)methyl]-3-{5-methyl-[1,2,4]triazolo[1,5-a]pyrimidin-7-yl}piperidine] showed an IC50 of 100 to 1000 nM.
In the case of `Cc1cc(C2CCCN(Cc3ccc(C)c(Br)c3)C2)n2ncnc2n1` (stereo not drawn) [Example 169, 1-[(3-Bromo-4-methylphenyl)methyl]-3-{5-methyl-[1,2,4]triazolo[1,5-a]pyrimidin-7-yl}piperidine], the IC50 is reported as 100 to 1000 nM.
For `COc1ccc(CN2CCCC(c3cc(C)nc4ncnn34)C2)cc1Br` (stereo not drawn) [Example 170, 1-[(3-Bromo-4-methoxyphenyl)methyl]-3-{5-methyl-[1,2,4]triazolo[1,5-a]pyrimidin-7-yl}piperidine], the IC50 was 100 to 1000 nM.
`Cc1cc(C2CCCN(Cc3ccc(F)c(Br)c3)C2)n2ncnc2n1` (stereo not drawn) [Example 171, 1-[(3-Bromo-4-fluorophenyl)methyl]-3-{5-methyl-[1,2,4]triazolo[1,5-a]pyrimidin-7-yl}piperidine] gave an IC50 of 1000 to 10000 nM.
`Cc1cc(C2CCCN(Cc3ccc(Br)c(C)c3)C2)n2ncnc2n1` (stereo not drawn) [Example 172, 1-[(4-Bromo-3-methylphenyl)methyl]-3-{5-methyl-[1,2,4]triazolo[1,5-a]pyrimidin-7-yl}piperidine] showed an IC50 of 100 to 1000 nM.
`Cc1cc(C2CCCN(Cc3ccc(I)cc3)C2)n2ncnc2n1` (stereo not drawn) [Example 173, 1-[(4-Iodophenyl)methyl]-3-{5-methyl-[1,2,4]triazolo[1,5-a]pyrimidin-7-yl}piperidine] gave an IC50 of 100 to 1000 nM.
`Cc1cc(C2CCCN(Cc3cccc(C#N)c3)C2)n2ncnc2n1` (stereo not drawn) [Example 175, 3-[(3-{5-Methyl-[1,2,4]triazolo[1,5-a]pyrimidin-7-yl}piperidin-1-yl)methyl]benzonitrile] gave an IC50 of 1000 to 10000 nM.
Work on `Cc1cc(C2CCCN(Cc3ccc(F)c(C#N)c3)C2)n2ncnc2n1` (stereo not drawn) [Example 176, 2-Fluoro-5-[(3-{5-methyl-[1,2,4]triazolo[1,5-a]pyrimidin-7-yl}piperidin-1-yl)methyl]benzonitrile] yielded an IC50 of 1000 to 10000 nM.
With `Cc1cc(C2CCCN(Cc3ccc(C#N)cc3)C2)n2ncnc2n1` (stereo not drawn) [Example 177, 4-[(3-{5-Methyl-[1,2,4]triazolo[1,5-a]pyrimidin-7-yl}piperidin-1-yl)methyl]benzonitrile] the IC50 was 1000 to 10000 nM.
In the case of `Cc1cc(C2CCCN(Cc3ccc(C)c(C#N)c3)C2)n2ncnc2n1` (stereo not drawn) [Example 180, 2-Methyl-5-[(3-{5-methyl-[1,2,4]triazolo[1,5-a]pyrimidin-7-yl}piperidin-1-yl)methyl]benzonitrile], the IC50 is reported as 100 to 1000 nM.
`Cc1cc(C2CCCN(Cc3cc(F)cc(C(F)(F)F)c3)C2)n2ncnc2n1` (stereo not drawn) [Example 181, 1-{[3-Fluoro-5-(trifluoromethyl)phenyl]methyl}-3-{5-methyl-[1,2,4]triazolo[1,5-a]pyrimidin-7-yl}piperidine] gave an IC50 of 100 to 1000 nM.
`Cc1cc(C2CCCN(Cc3ccc(C#N)c(F)c3)C2)n2ncnc2n1` (stereo not drawn) [Example 183, 2-Fluoro-4-[(3-{5-methyl-[1,2,4]triazolo[1,5-a]pyrimidin-7-yl}piperidin-1-yl)methyl]benzonitrile] showed an IC50 of 100 to 1000 nM.

Same assay, conditions: IMAP TR-FRET, 200 nM FAM-cAMP substrate, 11-point half-log dose-response
In the case of `Cc1cc(C2CCCN(Cc3ccc(C(F)(F)F)c(F)c3)C2)n2ncnc2n1` (stereo not drawn) [Example 178, 1-{[3-Fluoro-4-(trifluoromethyl)phenyl]methyl}-3-{5-methyl-[1,2,4]triazolo[1,5-a]pyrimidin-7-yl}piperidine], the “PDE2 (pIC50)” value is reported as over 7.
In the case of `Cc1cc([C@H]2CCCN(Cc3ccc(C(F)(F)F)c(F)c3)C2)n2ncnc2n1` [Example 179, (3S)-1-{[3-Fluoro-4-(trifluoromethyl)phenyl]methyl}-3-{5-methyl-[1,2,4]triazolo[1,5-a]pyrimidin-7-yl}piperidine], the “PDE2 (pIC50)” value is reported as over 7.
For `Cc1cc(C2CCCN(Cc3cc(F)c(Cl)c(F)c3)C2)n2ncnc2n1` (stereo not drawn) [Example 182, 1-[(4-Chloro-3,5-difluorophenyl)methyl]-3-{5-methyl-[1,2,4]triazolo[1,5-a]pyrimidin-7-yl}piperidine], the “PDE2 (pIC50)” value was over 7.
